Data from ChEMBL document CHEMBL5620362, “Discovery, structural optimization, and anti-tumor bioactivity evaluations of betulinic acid derivatives as a new type of RORγ antagonists” (Eur J Med Chem, 2023).

Sequences of proteins named here, by UniProt entry; tags and fusion partners are left off. A change or cut given only in a name is not applied to a line headed by its entry.
UniProt P51449: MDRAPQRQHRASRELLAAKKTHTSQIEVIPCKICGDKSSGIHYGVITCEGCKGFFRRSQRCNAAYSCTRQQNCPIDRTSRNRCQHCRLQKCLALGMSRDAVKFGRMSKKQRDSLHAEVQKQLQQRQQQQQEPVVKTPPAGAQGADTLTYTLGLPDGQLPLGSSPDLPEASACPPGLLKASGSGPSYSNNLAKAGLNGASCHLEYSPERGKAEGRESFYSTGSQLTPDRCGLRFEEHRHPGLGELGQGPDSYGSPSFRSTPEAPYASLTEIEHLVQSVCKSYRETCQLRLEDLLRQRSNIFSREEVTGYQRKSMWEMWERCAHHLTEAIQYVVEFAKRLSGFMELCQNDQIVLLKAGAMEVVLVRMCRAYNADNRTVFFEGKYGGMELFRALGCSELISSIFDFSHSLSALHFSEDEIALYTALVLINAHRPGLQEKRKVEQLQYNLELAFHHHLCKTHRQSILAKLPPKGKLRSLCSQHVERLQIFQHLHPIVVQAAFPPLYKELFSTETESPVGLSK

Assays:
[1] = target: T1, Nuclear receptor ROR-gamma (Homo sapiens, UniProt P51449); conditions: filed as antagonist, dose 20.0 µM
[2] = target: T1, Nuclear receptor ROR-gamma; conditions: filed as antagonist, dose 20.0 µM; remark: listed apart in the source

## C=C(C)[C@@H]1CC[C@]2(C(=O)O)CC[C@]3(C)[C@H](CC[C@@H]4[C@@]5(C)CC[C@H](O)C(C)(C)[C@@H]5CC[C@]43C)[C@@H]12 [BETULINIC ACID]
[1]
  deltaH: -10.5 kcal/mol
[2]
  deltaS: 3 kcal/mol
